Results: patent US20100028995A1 (ANAPHORE, published 2010)

Molecular target: T1, mouse IL1-R1/Fc (mouse, UniProt P13504 20-338, limits assumed)
T1 construct: Coupled to CM5 sensor chips for Biacore 3000; also called IL-1 Receptor 1; IL-1RI protein; not shown: Fc part
T1 sequence (looked up): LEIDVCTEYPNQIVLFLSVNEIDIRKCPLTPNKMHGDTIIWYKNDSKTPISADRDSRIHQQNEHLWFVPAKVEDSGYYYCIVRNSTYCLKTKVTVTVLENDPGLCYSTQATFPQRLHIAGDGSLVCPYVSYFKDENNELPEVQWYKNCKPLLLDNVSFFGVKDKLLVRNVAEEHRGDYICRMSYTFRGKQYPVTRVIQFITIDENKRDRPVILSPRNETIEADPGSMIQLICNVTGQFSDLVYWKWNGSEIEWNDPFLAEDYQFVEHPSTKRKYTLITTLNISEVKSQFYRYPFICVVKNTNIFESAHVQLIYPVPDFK
Experiment: SPR (Biacore 3000); mouse IL1-R1/Fc coupled to a CM5 chip; analyte is uncleaved CII-H6-GrB-TripK-IL-1ra refolded by dialysis; analyte concentration not given
Method: The ability of the refolded protein to bind to IL-1 Receptor 1 was analyzed on a Biacore 3000 (Biacore, Uppsala, Sweden) where mouse IL1-R1/Fc was coupled to CM5 sensor chips and binding of soluble TripK-IL-1ra to IL-1RI protein was measured. Results of uncleaved CII-H6-GrB-TripK-IL-1ra refolding by dialysis are shown in FIG. 2 and uncleaved CII-H6-GrB-TripK-IL-1ra on-column NiNTA refolding is shown in FIG. 3. The cleavage and purification assays produced the trimeric IL-1Ra compounds of SEQ ID NOs: 47-54.

B1: CII-H6-GrB-GG-TripK-IL-1ra (ligand)
chain: MVRANKRNEALRIESALLNKIAMLGTEKTAEGGSHHHHHHGSIEPDGGEGPTQKPKKIVNAKKDVVNTKMFEELKSRLDTLAQEVALLKEQQALQTVSLKRPSGRKSSKMQAFRIWDVNQKTFYLRNNQLVAGYLQGPNVNLEEKIDVVPIEPHALFLGIHGGKMCLSCVKSGDETRLQLEAVNITDLSENRKQDKRFAFIRSDSGPTTSFESAACPGWFLCTAMEADQPVSLTNMPDEGVMVTKFYFQEDE
notes: also called CII-H6-GrB-TripK-IL-1ra; CII-H6-GrB-TripK-IL-1Ra
B1: binds.
